SMILES strings stand for the structures.

By UniProt entry, the sequences of proteins in these tests, tags left out. Residues count along the entry.
UniProt P27487, 39-766 limits assumed: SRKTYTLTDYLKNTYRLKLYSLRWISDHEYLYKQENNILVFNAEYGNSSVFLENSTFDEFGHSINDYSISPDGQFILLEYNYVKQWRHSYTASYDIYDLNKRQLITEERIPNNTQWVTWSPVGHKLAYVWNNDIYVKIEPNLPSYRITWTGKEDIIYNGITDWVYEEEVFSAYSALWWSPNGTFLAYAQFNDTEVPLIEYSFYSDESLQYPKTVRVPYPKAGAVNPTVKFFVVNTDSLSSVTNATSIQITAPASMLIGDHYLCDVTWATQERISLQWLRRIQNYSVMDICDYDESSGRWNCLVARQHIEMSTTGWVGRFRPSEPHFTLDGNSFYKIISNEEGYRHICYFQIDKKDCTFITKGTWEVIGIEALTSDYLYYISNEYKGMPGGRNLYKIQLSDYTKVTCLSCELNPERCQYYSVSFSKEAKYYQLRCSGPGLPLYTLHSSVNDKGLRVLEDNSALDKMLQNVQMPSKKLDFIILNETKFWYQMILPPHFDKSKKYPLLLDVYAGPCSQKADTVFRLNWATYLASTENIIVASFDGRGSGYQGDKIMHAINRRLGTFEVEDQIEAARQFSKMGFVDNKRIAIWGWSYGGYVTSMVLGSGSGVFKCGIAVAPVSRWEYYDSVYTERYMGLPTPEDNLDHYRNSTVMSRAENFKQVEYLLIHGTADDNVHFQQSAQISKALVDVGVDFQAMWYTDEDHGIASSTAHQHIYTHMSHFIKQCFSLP
UniProt Q12884, 38-760 limits assumed: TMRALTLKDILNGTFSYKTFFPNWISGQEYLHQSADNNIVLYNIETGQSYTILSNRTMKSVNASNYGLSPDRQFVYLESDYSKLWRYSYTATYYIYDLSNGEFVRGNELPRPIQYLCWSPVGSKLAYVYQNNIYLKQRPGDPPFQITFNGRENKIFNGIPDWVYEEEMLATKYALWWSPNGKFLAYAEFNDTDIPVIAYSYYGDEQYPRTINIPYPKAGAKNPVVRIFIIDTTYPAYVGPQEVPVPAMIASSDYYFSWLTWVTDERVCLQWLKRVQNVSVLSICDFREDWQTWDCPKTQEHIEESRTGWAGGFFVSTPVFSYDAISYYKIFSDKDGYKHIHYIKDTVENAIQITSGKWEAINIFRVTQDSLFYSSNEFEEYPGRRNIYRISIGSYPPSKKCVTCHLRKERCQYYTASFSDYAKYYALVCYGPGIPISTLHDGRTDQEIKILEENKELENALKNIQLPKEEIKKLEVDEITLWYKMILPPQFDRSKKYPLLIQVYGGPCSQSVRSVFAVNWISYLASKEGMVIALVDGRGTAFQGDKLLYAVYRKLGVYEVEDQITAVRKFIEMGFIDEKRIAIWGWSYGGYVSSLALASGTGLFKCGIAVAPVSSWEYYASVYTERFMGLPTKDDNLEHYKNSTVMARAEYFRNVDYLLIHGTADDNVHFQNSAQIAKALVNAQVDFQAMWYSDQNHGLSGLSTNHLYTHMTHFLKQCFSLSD

The target in test [1] is T1, DPP-4 (Homo sapiens, UniProt P27487). Put plainly: Inhibition of DPP-4 activity against Ala-Pro-AFC by P2-Pro-AMCC compounds. To be noted: read-out: DPP-4 Ki.
Test [2] concerns the target T2, FAP (Homo sapiens, UniProt Q12884). Briefly: Relative cleavage rates of coumarin (AMCC) dipeptide substrates by FAP. To be noted: P2-Pro-AMCC substrates; hydrolysis rates normalized to Gly-Pro-AMCC.
Test [3] has as its target T1, DPP-4. Briefly: Relative cleavage rates of coumarin (AMCC) dipeptide substrates by DPP-4. The conditions noted are these: P2-Pro-AMCC substrates; hydrolysis rates normalized to Gly-Pro-AMCC.
Test [4] deals with T2, FAP. Briefly: Inhibition of FAP activity against Ala-Pro-AFC by P2-Pro-AMCC compounds. To be noted: read-out: FAP Ki.

As for `CC(=O)N[C@H](C(=O)N1CCC[C@H]1C(=O)Nc1ccc2c(C)c(CC(N)=O)c(=O)oc2c1)C1CCCCC1`, the Ki on DPP-4 [1] is more than 1000 nM; at FAP [4], 67 nM. For the same molecule, the “Relative Hydrolysis rate by FAP” value at FAP [2] amounted to 0. Further, the “Relative Hydrolysis rate by DPP-4” value on DPP-4 [3] amounted to 0.

The term Ki denotes the dissociation constant of the complex between target and ligand, obtained from inhibition or displacement.

The values are drawn from patent US7399869B2, “Fibroblast activation protein inhibitor compounds and methods” (Genentech, Inc., priority 2005, dated 2008).
